# From patent US9855286B2, “Pharmaceutical composition comprising (1r,4r)-6′-fluoro-N,N-di methyl-4-phenyl-4′,9′-dihydro-3′H-spiro[cyclohexane-1,1′-pyrano-[3,4,b]indol]-4-amine and a salicylic acid component” (dated 2018)
# Where two headings read alike, the source gives them in different places.
# System: male albino rats (Sprague Dawley)
# Details: alone, dose 0.00464 mg/kg i.v., Mean ± SEM, n = 10
compound,measurement,setting,value
CN(C)[C@]1(c2ccccc2)CC[C@]2(CC1)OCCc1c3cc(F)ccc3[nH]c12,% MPE (Maximum possible effect),30 min. post administration,12.2 ± 2.69 % MPE
same,% MPE (Maximum possible effect),60 min. post administration,10.6 ± 3.51 % MPE
same,% MPE (Maximum possible effect),90 min. post administration,2.88 ± 2.27 % MPE
